This is an account of results in publication PMC3107525 (The Journal of neuroscience : the official journal of the …, 2011).

For the assay, the target named is hSERT Y95F/C109A/Q332C (Homo sapiens, UniProt P31645, C109A/Q332C/Y95F). The note with it: 40 μM 5HT, 4 mM DA, 40 μM cocaine or 160 μM ibogaine.

Consider ibogaine, for which the “effect on MTSET-inactivation” value is “protection from MTSET-inactivation”.
The same measure for `COC(=O)[C@H]1[C@@H](OC(=O)c2ccccc2)C[C@@H]2CC[C@H]1N2C` [Cocaine, cocaine]: “potentiated”.
